Earlier results, collected in US5264431A, “Polycyclic conjugates” (Ciba-Geigy Corp., priority 1991, dated 1993).

Tested on: yeast-like microorganisms and fungi

CN[C@@H]1C[C@H]2O[C@@](C)([C@@H]1OC)n1c3ccccc3c3c4c(c5c6ccccc6n2c5c31)C(=O)NC4 [staurosporin]
MIC: 3 to 25 µg/mL
